# Source: PMC8474606 (Brain, Behavior, & Immunity - Health, 2020)
# System: BMECs
# Assay: Transport study in BMECs
# Conditions: 3 h after DPHM treatment (30 μM)
smiles,measurement,value
"CN(C)CCOC(c1ccccc1)c1ccccc1 [DPHM, 2-(diphenylmethoxy)-N,N-dimethylethylamine]","Concentration of DPHM in the basolateral compartment, LPS serum vs control serum",Significantly higher concentrations
